Source: PubChem (National Center for Advancing Translational Sciences (NCATS))
Compounds with a hit are over-represented: about 13% of the library has one in this group of screens.
Sfp inh: inhibitors of Bacillus subtilis Sfp phosphopantetheinyl transferase. Biochemical Sfp PPTase activity, qHTS. actives 3.5% (n = 310,000). Q9F4F7. Potency, µM, usual class: inhibitors. AID 1490;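 also: the enzyme is Sfp with the accession as filed and its product quenches rhodamine fluorescence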
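With Hepes-Na pH 7.6 buffer containing 10 mM MgCl2, Sfp (15 nM) modified BHQ-2-YbbR (12.5 uM) using rhodamine-CoA (5 uM). Two reads 30 minutes apart at 525/598 nm yielded each well's rate.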
ALDH1A1 block: inhibitors of human aldehyde dehydrogenase 1A1; Potency, µM (titrated, usually from 75.3 µM), most hits filed as inhibitors; actives 7.3% (n = 220,000); AID 1030; Purified ALDH1A1, NADH fluorescence, propionaldehyde substrate; active = well fitted inhibition curve with a large enough effect, not every such curve was filed as active; inconclusive = small, poorly fitted or top-dose-only effect, or another doubt; inactive = no such curve, though single readings can be large or run the other way
G9a inh: blocks human histone lysine methyltransferase G9a; Potency, µM (series often up to 102 µM), hits mostly inhibitors; G9a H3K9 monomethylation, AlphaScreen, 2 h; Q96KQ7; AID 504332; actives 8.8% (n = 350,000); also: nearly all actives have a fitted effect of over 75% in size
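Step 1: enzyme (final 20 nM) with compound, 15 min RT. Step 2: substrate peptide 500 nM and SAM 20 uM, 2 h RT. Step 3: anti-H3K9me1 antibody and AlphaScreen beads, 10 min, then plate read.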
JMJD2E inh: blocks human JMJD2E demethylase activity | AID 2147 | Potency, µM (highest dose often 57.1 µM), most hits filed as inhibitors | actives 1.6% (n = 230,000) | JMJD2E catalytic domain, FDH-coupled NADH fluorescence (FDH is formaldehyde dehydrogenase) | B2RXH2; active = well fitted inhibition curve with a large enough effect, not every such curve was filed as active; inconclusive = small, poorly fitted or top-dose-only effect, or another doubt; inactive = no such curve, though single readings can be large or run the other way; also: nearly all actives have a fitted effect of over 50% in size
Lamin A splicing: LMNA splicing modulation; HeLa LMNA splicing GFP/RFP minigene ratio, 48 h; Potency, µM (titrated, usually from 46.1 µM), usual class: inhibitors; actives 0.01% (n = 200,000); AID 1487; active = well fitted inhibition curve with a large enough effect in the signal ratio, with a control signal flat, not every such curve was filed as active; inconclusive = small, poorly fitted or top-dose-only effect, or effect the other way, or a change in a side signal; the % refers to the signal ratio
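Read-out is the ratio of GFP to DsRed2 object intensity, acquired by 488 nm laser-scanning cytometry on HeLa lamin A-EGFP minigene reporter cells. Compound incubation 48 hrs at 37 °C in Opti-MEM with 2% FBS; DMSO 0.5% final.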
miR-21 reporter: raises the signal of a miR-21 reporter; HeLa miR-21 FLuc reporter, luciferase, 48 h; Potency, µM (top dose mostly 38.3 µM); AID 2288; 340,000 tested, under 10 active; active = well fitted rising curve with a large enough effect; inconclusive = small, poorly fitted or top-dose-only effect; inactive = no such curve, though single readings can be large or run the other way;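 note: miR-21 action dims this reporter so a rising signal means less miR-21 action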
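Using DMEM plus 10% FBS, HeLa miR-21-FLuc cells are incubated with test compounds (final up to about 40uM) for 48 hours; firefly luciferase signal is then imaged following reagent-mediated lysis.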
Numbers stand for hits; i = inactive; ? = inconclusive; nt = no result; [ ] = dose if it differs, or a comment. Unless noted, calls follow the shape of the dose curve; as a rule, active = well fitted curve in the direction sought with a large enough effect; inconclusive = small, poorly fitted or top-dose-only effect, or another doubt; inactive = no such curve, though single readings can be large; an effect the other way counts as inactive or inconclusive.

SMILES	Sfp inh	ALDH1A1 block	G9a inh	JMJD2E inh	Lamin A splicing	miR-21 reporter
CNC(=S)N(Cc1cc2ccc(OC)cc2[nH]c1=O)CC1CCCO1 (stereo not given)	i	?	nt	i	nt	i
Cc1cccc(C)c1OCc1nc2c3cnn(-c4ccccc4Br)c3ncn2n1	nt	nt	i	nt	nt	i
CCN(CC)S(=O)(=O)c1ccc(C(=O)N2CC(=O)Nc3ccc(F)cc3C2c2ccccc2)cc1 (stereo not given)	nt	nt	i	nt	nt	i
CC1Cc2ccccc2N1C(=O)CSc1ncccc1C(=O)O (stereo not given)	i	i	79µM	i	i	i
Cc1cc(C)c(C(=O)CSc2nnc(C)c(=O)[nH]2)cc1C	i	i	40µM	i	i	i
Cc1cc2ccccc2nc1SCC(=O)N1c2ccccc2CC1C (stereo not given)	i	i	i	i	i	i
Cc1nnc(SCC(=O)N2c3ccccc3CC2C)[nH]c1=O (stereo not given)	i	11µM	i	i	i	i
CC1Cc2ccccc2N1C(=O)CSc1ccccc1 (stereo not given)	i	18µM	i	i	?	i
Cc1cc(C)cc(NC(=O)CSc2nc3c(oc4ccccc43)c(=O)n2-c2ccccc2F)c1	nt	nt	i	nt	nt	i
Cn1cccc1C(=O)NC(=O)COC(=O)c1ccc(O)cc1	i	3.2µM	i	i	i	i
CCOC(=O)c1c(NC(=O)c2ccc(Br)cc2)sc2c1CCCC2	nt	nt	10µM	nt	i	i
CCOC(=O)c1c(NC(=O)c2ccc(C)c(C)c2)sc2c1CCCCC2	nt	nt	i	nt	nt	i
CCOC(=O)c1c(NC(=O)c2nn(CC)cc2Br)sc2c1CCCCC2	20µM	?	?	?	i	i
COC(=O)c1c(NC(=O)c2c(C)noc2C)sc2c1CCCCCC2	i	i	i	?	i	i
CCOC(=O)c1c(NC(=O)c2nn(CC)cc2Br)sc(C)c1C	?	?	?	?	i	i
CCOC(=O)c1c(NC(=O)c2ccoc2C)sc2c1CCC2	25µM	?	i	?	i	i
CCOC(=O)c1c(NC(=O)c2cc(Cl)ccc2Cl)sc2c1CCCC2	nt	nt	i	nt	nt	i
CCn1cc(C(=O)NC(=S)Nc2sc3c(c2C(=O)OC)CCCCCC3)cn1	35µM	i	?	i	i	i
CCN(CC(=O)Nc1c(F)cccc1F)C(=O)/C=C/c1ccc(Br)s1	nt	nt	i	nt	nt	nt
Cc1ccc(CNS(=O)(=O)c2cc(C(=O)Nc3cccc(C(F)(F)F)c3)ccc2F)cc1	nt	nt	i	nt	?	?
COc1cc(C(C(=O)NC2CCCC2)N(CCO)C(=O)Cn2nnc(-c3ccc(C)o3)n2)ccc1O (stereo not given)	i	nt	i	nt	nt	i
CCCCSCCCNC(=O)c1c[nH]c2ccc(S(=O)(=O)Nc3cccc(OC)c3)cc2c1=O	nt	nt	i	nt	i	i
CCOC(=O)c1c(NC(=O)c2ccccc2C)sc2c1CCCC2	nt	nt	7.9µM	nt	nt	i
Cc1ccc(C(=O)N/N=C2\SCC(=O)N2c2cc(C)ccc2C)cc1	71µM	i	i	i	i	i
Cc1ccccc1N(C)C(=O)C1CCCN(c2ncnc3c2nc2n3CCCCC2)C1 (stereo not given)	i	nt	i	nt	nt	i
SMILES	Sfp inh	ALDH1A1 block	G9a inh	JMJD2E inh	Lamin A splicing	miR-21 reporter
O=C(CSc1nnc(C2CC2)n1-c1ccccc1)NCc1ccco1	i	i	79µM	i	i	i
O=C(CSc1nnc(C2CC2)n1Cc1ccco1)NCC(F)(F)F	i	24µM	i	i	i	i
O=C(CSc1nnc(-c2ccccc2)n1-c1ccccc1)NCc1ccco1	i	?	?	i	i	i
CC(C)(C)c1nc2ccccc2c2nnc(SCC(=O)NCc3ccco3)n12	i	25µM	i	i	?	i
CC(C)(C)NC(=O)CSc1nnc(C2CC2)n1Cc1ccccc1	i	i	i	i	i	i
CCCC(=O)O[C@]1(C(=O)COC(C)=O)CC[C@H]2C3C[C@H](F)C4=CC(=O)C=CC4(C)[C@@]3(F)[C@@H](O)CC21C (stereo not given in full)	i	nt	i[12.7 µM]	nt	nt	nt
CC(CNC(=O)C1CCN(C(=O)N2CCOc3ccc(Cl)cc32)CC1)c1ccccc1 (stereo not given)	nt	nt	?	nt	?	i
COC(=O)c1ccccc1NC(=O)COc1ccc(S(=O)(=O)NC(C)C)cc1	i	?	i[12.7 µM]	i	?	i
O=C(COc1ccccc1)NNC1=NS(=O)(=O)c2ccccc21	i	i	45µM	i	i	i
CC(=O)NNC(=S)NC(=O)c1ccccc1	18µM	18µM	6.3µM	?	i	i
O=C(CCCCC(=O)NNC(=O)COc1ccccc1)NNC(=O)COc1ccccc1	i	nt	35µM	nt	nt	i
Cc1cccc(OCC(=O)NNC(=O)CCCCC(=O)NNC(=O)COc2cccc(C)c2)c1	i	nt	i	nt	nt	i
Cc1ccc(C(=O)NC(=S)NNC(=O)COc2ccccc2C)cc1	i	11µM	3.5µM	i	?	i
CCOC(=O)c1ccccc1NC(=O)CSc1nc2cn(CC)nc2c(=O)n1Cc1ccc(Cl)cc1	nt	nt	?	nt	nt	i
CCC(=O)NNC(=S)NC(=O)c1ccc(C)cc1	56µM	20µM	i[0.501 µM]	i	nt	i
CC(=O)NNC(=S)NC(=O)c1ccc(C)cc1	i	?	?	i	i	i
O=C(COc1ccccc1)NNC(=S)NC(=O)c1ccccc1	?	22µM	2.2µM	i	i	i
Cc1ccc(C(=O)NNC(=S)NC(=O)c2ccc(Cl)cc2)cc1	i	i	40µM	i	?	i
O=C(CCc1ccccc1)NNC(=S)NC(=O)c1ccc(Cl)cc1	50µM	11µM	1.6µM	i	?	i
CC(C)[C@](N)(C(=O)O)c1ccccc1	nt	i[13.5 µM]	nt	nt	nt	nt
CCCCCCCCCCCCCCC[C@@H](O)[C@H](CO)NC(C)=O	i	i	i	i	nt	nt
O=C(CN(Cc1ccco1)C(=O)CCC(=O)Nc1ccccn1)NCc1ccccc1	i	nt	i	nt	nt	i
O=C(O)C1C2C=CC(C2)C1C(=O)Nc1ccc2c(c1)OCCO2 (stereo not given)	i	i	i	i	i	i
O=C(O)C1CCCCC1C(=O)Nc1ccc2c(c1)OCCO2 (stereo not given)	i	i	2.5µM	i	i	i
O=C(O)C1C2C=CC(O2)C1C(=O)Nc1ccc2c(c1)OCCO2 (stereo not given)	i	11µM	?	i	i	i
COC(=O)c1ccc(OC(=O)CN2C(=O)c3ccccc3C2=O)cc1	i	nt	i	nt	nt	i
COc1ccc(-n2nc3cc(C)c(NC(=O)c4ccc(-c5ccc(Cl)cc5)o4)cc3n2)cc1	nt	nt	i	nt	nt	i
Cc1cccc(-c2c(O)cc(=O)[nH]c2Cl)c1	?	i	i	i	i	i
O=c1cc(O)c(-c2ccccc2Cl)c(Cl)[nH]1	89µM	i	i[12.7 µM]	i	i	i
COc1ccccc1C(=O)NCCn1cc(SCC(=O)Nc2nnc(C)s2)c2ccccc21	i	0.32µM	i	i	i	i
